For this test, the target named is Kappa-type opioid receptor (Homo sapiens, UniProt P41145). Briefly: Binding affinity towards recombinant human Opioid receptor kappa 1 transfected in to CHO cells for the displacement of [3H]U-69593. Format: cell-based. An outline of the steps: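 Radioligand displacement (Ki) at cloned human opioid receptors expressed in CHO cells. Radioligands: [3H]DAMGO for mu, [3H]Cl-DPDPE for delta, [3H]U69593 for kappa.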

Protein sequences, listed by entry. Tags and fused reporters are not part of them. Lines headed by an entry give the natural chain unless they say otherwise; changes in a name come on top.
UniProt P41145: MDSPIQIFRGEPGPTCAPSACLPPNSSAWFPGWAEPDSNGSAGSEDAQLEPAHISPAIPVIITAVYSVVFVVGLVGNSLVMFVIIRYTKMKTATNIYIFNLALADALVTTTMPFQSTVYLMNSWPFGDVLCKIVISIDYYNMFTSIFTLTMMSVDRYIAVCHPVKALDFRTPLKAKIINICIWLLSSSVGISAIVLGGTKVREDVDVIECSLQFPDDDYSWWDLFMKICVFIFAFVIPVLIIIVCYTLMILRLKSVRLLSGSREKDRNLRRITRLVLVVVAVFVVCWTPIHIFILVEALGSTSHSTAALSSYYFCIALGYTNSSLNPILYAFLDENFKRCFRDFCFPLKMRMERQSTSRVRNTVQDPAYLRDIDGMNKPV

For `Oc1ccc2c3c1O[C@H]1c4[nH]c5ccccc5c4C[C@@]4(O)[C@@H](C2)N(CC2CC2)CC[C@]314` [NALTRINDOLE], the inhibition constant (Ki) – broadly, a dissociation constant, usually derived from enzyme kinetics or from competition with a known ligand – is 10.1 nM.

(Values after ChEMBL document CHEMBL1135445, “4'-Arylpyrrolomorphinans: effect of a pyrrolo-N-benzyl substituent in enhancing delta-opioid antagonist activity” (J Med Chem, 2002).)
